## Ab-14 heavy chain CDR variants: yeast mating affinities

The target is the same throughout: PDVDLGDISGINAS, from the HR2 region of SARS-CoV-2 spike.

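The starting antibody came from a phage panning campaign against this peptide. This is the validation round: designs drawn from the data on random variants, tested in the same kind of assay. Several design methods are mixed in this list. In AlphaSeq, yeast of one mating type display the scFv and yeast of the other type display the target. The frequency of each diploid, read from paired DNA barcodes, reflects how well the two displayed proteins bind. The ratio of observed to expected reads was calibrated, replicate by replicate, on BCL2-family standards whose Kd was known from biolayer interferometry. Mating was done six times.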

Parent: Ab-14, a human scFv built as VH, a (GGGGS)3 linker, VL. Only the CDRs of the heavy chain vary.
VH: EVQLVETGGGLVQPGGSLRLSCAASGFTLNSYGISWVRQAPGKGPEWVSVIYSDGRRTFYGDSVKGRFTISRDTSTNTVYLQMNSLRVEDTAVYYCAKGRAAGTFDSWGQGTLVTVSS
VL: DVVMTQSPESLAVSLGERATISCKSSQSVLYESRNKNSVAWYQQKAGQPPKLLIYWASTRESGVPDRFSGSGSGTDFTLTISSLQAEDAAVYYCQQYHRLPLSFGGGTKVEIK

The parent's heavy chain CDRs are GFTLNSYGIS, VIYSDGRRTFYGDSVK, GRAAGTFDS; each variant's own CDRs replace them letter for letter.
This list holds designs with more than six substitutions.
Values are apparent Kd, the geometric mean of the replicates that gave a signal; lower means stronger binding.
"nd" means that the variant was in the library but no mating with the target was seen in any replicate; the authors take this as a sign of poor binding, and no number exists.
Empty control strains, which show no peptide, gave a signal in 1% of pairings with all heavy chain designs; the median was 120 nM and 95% of these signals were weaker than 7.0 nM. No background was subtracted.
The range of this assay differs from that of the first round, and the authors advise against merging the two.
In the paper, a design with two or fewer of six values counts as a poor binder.
Of ten entries with the parent sequence, four were seen in most replicates (averages 2.2 nM to 240 nM), three in one and three in none, so single entries are noisy.

For GADIEEYGIS / VIYADGVRKSYVNSFK / GEVAGTFTN, the assay gave nd (0 of 6 replicates). With GFDLNEYGIS / VIYADGMRTSYADSVK / GNQAGTFDL the result was 2.0 nM (6 of 6 replicates). Variant GFDINEYGIS / VIYADGMRTKYSESVK / GTVDGSFNG gave 560 pM (4 of 6 replicates). Variant GFGLSEYGIS / VIYADGVRASYADNVK / GFNYGVDIL gave nd (0 of 6 replicates). Variant GFTLNDYGIS / VIYSDKRRTFPGCSVK / GRAALTKPS gave nd (0 of 6 replicates).

For GFDLNEYGIS / VIYADGRRTAYIDSVK / GNIAGTFDV, the assay gave 170 pM (6 of 6 replicates). For GFDLNEYGIS / VIYADGKRTAYADKVK / GNQAGTFDV, the assay gave 1.9 nM (2 of 6 replicates). Variant GFDLNEYGIS / VIYADGRRTFYVDSVK / GEIAGTFDV showed 560 pM (6 of 6 replicates). For GSKLDEYGIS / VIYADGKRTFYSNAVK / GIKAGGTTV, the assay gave nd (0 of 6 replicates). With GFDLNEYGIS / VIYADGKRTAYSDSVK / GNNAGTFDM the result was 53 pM (5 of 6 replicates).

Variant GFNLNEYGIS / VIYADGIRKAYLNTVK / GIHSGGTWV showed nd (0 of 6 replicates). With GFDLDEYGIS / VIYADGRRTFYADSVK / GTQAGTFDA the result was 130 pM (6 of 6 replicates). Variant GFNLEDYGIS / VIYADGKRTFYADSVK / GEVAGTFDV showed 340 pM (6 of 6 replicates). Variant GFDINEYGIS / VIYADGMRTAYVQQVK / GQHLGFVEV gave nd (0 of 6 replicates). Variant GFDLEDYGIS / VIYADGMRTAYTDSVK / GNQAGTFDV gave 590 pM (6 of 6 replicates).

Variant GFDLDKYGIS / VIYADGRRKFYQNQFK / GGQTGTFDI showed nd (0 of 6 replicates). Variant GFDLDEYGIS / VIYADGQRTAYADSVK / GQNAGTFDT showed 450 pM (6 of 6 replicates). Variant GFDLNEYGIS / VIYADGQRTAYADSVK / GKNAGFFDS showed 2.0 µM (1 of 6 replicates). Variant GFDLNEYGIS / VIYADGRRTFYADSVK / GQVAGTFDL showed 120 pM (6 of 6 replicates). Variant GFDLNEYGIS / VIYADGMRTFYDDSVK / GNLAGTFDF gave 400 pM (6 of 6 replicates).

For GFGIGEYGIS / VIYADGRRTFYSDDVK / GNMIVTFVD, the assay gave nd (0 of 6 replicates). Variant GFDLDEYGIS / VIYADGMRTFYSDSVK / GSTAGTFDV gave 190 pM (6 of 6 replicates). With GFDLNEYGIS / VIYADGVRTAYTDSVK / GEVAGTFDV the result was 630 pM (6 of 6 replicates). Variant GFDLNEYGIS / VIYADGVRTAYTDSVK / GNNAGTFDL showed 940 pM (6 of 6 replicates). Variant GFDLDEYGIS / VIYADGMRTAYADSVK / GNVAGTFDM showed 73 pM (6 of 6 replicates).

With GFDLDEYGIS / VIYADGVRTAYADSVK / GEVAGTFDQ the result was 600 pM (6 of 6 replicates). For GFDLNEYGIS / VIYADGRRTAYSDSVK / GNVAGTFDS, the assay gave 370 pM (6 of 6 replicates). Variant GFDLDEYGIS / VIYADGQRTAYVDSVK / GNVAGTFDL showed 260 pM (6 of 6 replicates). Variant GFDLEDYGIS / VIYADGMRTAYSDSVK / GEVAGTFDT gave 340 pM (6 of 6 replicates). Variant GFDIQEYGIS / VIYADGIRSAYIDNVK / GDTGSQFFE showed nd (0 of 6 replicates).

Repeated from above, the 4 best binders with a signal in all replicates:

With GFDLDEYGIS / VIYADGMRTAYADSVK / GNVAGTFDM the result was 73 pM (6 of 6 replicates).
With GFDLNEYGIS / VIYADGRRTFYADSVK / GQVAGTFDL the result was 120 pM (6 of 6 replicates).
With GFDLDEYGIS / VIYADGRRTFYADSVK / GTQAGTFDA the result was 130 pM (6 of 6 replicates).
With GFDLNEYGIS / VIYADGRRTAYIDSVK / GNIAGTFDV the result was 170 pM (6 of 6 replicates).

The measurements come from Li et al. 2023 (doi:10.1038/s41467-023-39022-2) through the FLAb antibody collection.